Test results reported in BindingDB's records for US10793556.

By UniProt entry, the sequences of proteins in these tests, tags left out. Where a name states a change or a piece, a line headed by the entry shows the natural chain unless it says otherwise.
UniProt P35372, whole entry, looked up: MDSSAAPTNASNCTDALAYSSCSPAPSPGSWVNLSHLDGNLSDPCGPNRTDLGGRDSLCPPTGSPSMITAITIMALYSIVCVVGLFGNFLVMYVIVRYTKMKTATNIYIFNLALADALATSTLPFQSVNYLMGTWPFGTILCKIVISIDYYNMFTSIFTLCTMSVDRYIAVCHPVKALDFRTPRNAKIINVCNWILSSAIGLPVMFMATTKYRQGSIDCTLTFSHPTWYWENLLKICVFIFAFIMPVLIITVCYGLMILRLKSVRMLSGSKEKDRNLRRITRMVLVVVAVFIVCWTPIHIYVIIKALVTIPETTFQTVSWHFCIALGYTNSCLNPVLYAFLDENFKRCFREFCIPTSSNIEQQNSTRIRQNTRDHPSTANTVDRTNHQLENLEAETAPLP
UniProt P41146: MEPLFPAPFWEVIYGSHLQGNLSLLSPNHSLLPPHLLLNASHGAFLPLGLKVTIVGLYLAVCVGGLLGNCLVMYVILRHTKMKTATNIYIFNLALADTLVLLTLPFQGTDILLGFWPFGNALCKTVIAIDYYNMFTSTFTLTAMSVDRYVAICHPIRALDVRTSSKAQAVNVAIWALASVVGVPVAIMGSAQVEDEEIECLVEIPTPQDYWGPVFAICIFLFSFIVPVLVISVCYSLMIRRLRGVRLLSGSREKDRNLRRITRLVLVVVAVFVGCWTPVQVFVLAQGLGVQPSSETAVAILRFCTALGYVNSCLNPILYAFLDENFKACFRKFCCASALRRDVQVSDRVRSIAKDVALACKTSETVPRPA

How the values were obtained:
[1] = target: Mu-type opioid receptor (Homo sapiens, UniProt P35372); assay: Receptor Binding Assay
[2] = target: Nociceptin receptor (Homo sapiens, UniProt P41146); assay: Receptor Binding Assay

Structure (SMILES) | Ki [1] [nM] | Ki [2] [nM]
CN(C)[C@]1(c2ccccc2)CC[C@]2(CC1)CN(CCCC(N)=O)C(=O)N2CC1CCC1 | 80.5 | 2.3
CN(C)[C@]1(c2ccccc2)CC[C@]2(CC1)CN(CC(C)(C)C#N)C(=O)N2CC1(F)CC1 | 2920 | –
CN(C)[C@]1(c2ccccc2)CC[C@]2(CC1)CN(CCCC#N)C(=O)N2CC1CCC1 | – | 1.6
